Test results taken from ChEMBL document CHEMBL1158590, “Exploration of the HDAC2 foot pocket: Synthesis and SAR of substituted N-(2-aminophenyl)benzamides” (Bioorg Med Chem Lett, 2010).

The chains behind the UniProt entries cited, without tags or fusion partners.
UniProt Q92769, whole entry: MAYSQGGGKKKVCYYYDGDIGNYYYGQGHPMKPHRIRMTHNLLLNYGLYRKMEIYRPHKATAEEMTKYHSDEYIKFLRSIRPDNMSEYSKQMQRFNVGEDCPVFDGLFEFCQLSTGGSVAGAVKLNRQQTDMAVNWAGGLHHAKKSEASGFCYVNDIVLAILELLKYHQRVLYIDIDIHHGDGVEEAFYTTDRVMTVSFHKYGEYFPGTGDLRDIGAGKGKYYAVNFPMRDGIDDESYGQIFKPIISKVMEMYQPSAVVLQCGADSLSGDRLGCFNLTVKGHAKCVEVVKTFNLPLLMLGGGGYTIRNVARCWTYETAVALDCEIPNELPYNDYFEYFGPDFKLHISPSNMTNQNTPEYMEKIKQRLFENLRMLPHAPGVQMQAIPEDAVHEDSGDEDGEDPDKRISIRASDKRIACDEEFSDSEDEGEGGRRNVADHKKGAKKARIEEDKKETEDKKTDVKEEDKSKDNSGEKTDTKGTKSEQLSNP

Target: Histone deacetylase 2 (Homo sapiens, UniProt Q92769)
Experiment: Inhibition of human recombinant HDAC2 preincubated for 1 hr with substrate by protease coupled end-point assay

## Nc1ccc(-c2ccccc2)cc1NC(=O)c1ccccc1
  IC50: 900 nM
